Structures are written as SMILES. Only a part is listed here, and it is no random draw. Active and inactive are the calls of the source.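 Rule for the calls: active = mean lysis activity across replicates of at least 80%, whatever share of replicates individually reach that level; inactive = mean lysis activity below 80%.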

The values below come from PubChem BioAssay AID651654 (Broad Institute, 2012).

The nature of the assay: fungicidal lysis via adenylate kinase leakage – AK release luminescence, single concentration, primary screen (AID 651654). The following applies: C. neoformans lysis, 4 h, at 15 µM, stronger effect = higher value, normalised: neutral wells 0, clomiphene wells 100. The method in brief: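 read-out = cell lysis signal | test system = log-phase Cryptococcus neoformans yeast cells | input = cells at 5 × 10^6 per mL | medium = fresh YPD growth medium | signal = luminescent adenylate kinase detection reagent | timing = 4 h at 37 °C static, read 1 h later | dosing = single dose | controls = Clomiphene as positive lysis control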
`CCC(=O)N(c1ccccc1)C1(COC)CCN(CCn2nnn(CC)c2=O)CC1`: the lysis activity is inactive: -0.448%.
The figure for `CCC(=O)N(c1ccccc1)C1(COC)CCN(CCc2cccs2)CC1` is inactive: 1.26%.
